Assay results from US20200164083A1.

How the values were obtained:
[1] = biological target: capture reagent (antibody) of the exenatide ELISA kit (Peninsula Laboratories Inc., # S-1311); assay: ELISA (Peninsula Lab exenatide kit)
GLP-1 receptor = GLP-1 receptor (UniProt P43220); assay: cell-based or functional assay

[N28K]exenatide (peptide)
EC50 [1]: > 100 nM

exenatide (peptide)
EC50, cAMP assay (GLP1R cAMP Hunter bioassay) (GLP-1 receptor): 0.029 nM
EC50, pM in GLP1R cAMP Hunter assay (GLP-1 receptor): 130 pM
EC50 in a GLP-1RA assay (GLP-1 receptor): 0.017 nM

[N28D]exenatide (synthetic) (peptide)
EC50, cAMP assay (GLP1R cAMP Hunter bioassay) (GLP-1 receptor): 0.041 nM
EC50 [1]: > 100 nM

[N28A]exenatide (peptide)
EC50 [1]: 6 nM
